Measurements published in patent publication US20150020221A1.

Molecular target: PARP1 (endogenous, Hela cell lysate) (human) (UniProt P09874)
Experiment: scanning densitometry of PARP1 immunoprecipitates from Hela cells (FIG. 4B)

Q: “BBAP (endogenous, Hela cell lysate) (from UniProt Q8TDB6 2-740) (enzyme)” was tested. Which fold increase co-immunoprecipitated with PARP1 (Dox-treated versus untreated cells) did it give?
A: 1.8 fold
